{"source": "patent US11744829B2", "about": "“Methods for treating neurological conditions and exposure to nerve agents” (dated 2023)", "key": {"[1]": {"assay": "Lowest effective dose, compound administered alone", "settings": "i.m."}, "Median toxic dose": {"assay": "Median toxic dose", "settings": "in vivo"}, "[2]": {"system": "moderate to severe migraine symptoms", "assay": "Acute migraine study", "settings": "for patients pain free at 2 hours: migraine patients, LY 1.2 mg/kg i.v., sumatriptin subcutaneous"}, "[3]": {"system": "capsaicin-induced spontaneous pain, allodynia and hyperalgesia", "assay": "Capsaicin pain crossover study in volunteers"}, "[4]": {"system": "tonic extensor seizures, audiogenic stimulus", "assay": "Audiogenic seizure model", "settings": "audiogenic stimulus 120 dB white noise, 60 s; s.c., 30 minute pretreatment"}, "[5]": {"system": "pain following dental surgery", "assay": "Postoperative dental pain study", "settings": "for pain intensity (visual analog scale, 240 minute period): patients after dental surgery, i.v., compared to placebo"}, "[6]": {"assay": "Plasma and brain levels of LY293558 after intramuscular injection", "settings": "15 mg/kg intramuscular; from 15 minutes"}, "[7]": {"system": "seizures induced by electrical shock (corneal electrode)", "assay": "Corneal electrical stimulation seizure model", "settings": "sc, 30 minute pretreatment"}, "morphine dependent rats": {"system": "morphine dependent rats", "assay": "Naloxone-precipitated withdrawal in morphine dependent rats, behavior scoring"}, "[8]": {"system": "seizures induced by pentylenetetrazole administration", "assay": "Pentylenetetrazole seizure model", "settings": "30 minute s.c. pretreatment"}, "[9]": {"system": "ambulations induced by phencyclidine", "assay": "Phencyclidine-induced ambulations in catecholamine depleted rats", "settings": "3 mg/kg sc, 30 minutes prior to PCP"}, "[10]": {"assay": "Maximum tolerated dose study in human volunteers", "settings": "i.v. bolus"}, "[11]": {"system": "seizures evoked by direct stimulation of the amygdala", "assay": "Amygdala stimulation seizure model", "settings": "direct stimulation of the amygdala via implanted electrodes"}, "[12]": {"system": "locus coeruleus (LC) neuronal cell firing", "assay": "Locus coeruleus neuronal firing during morphine withdrawal, in vivo electrophysiology", "settings": "10 mg/kg; anesthetized animals; withdrawal raised firing from 0.5 Hz to 4 Hz"}, "[13]": {"system": "seizures induced by intracerebral injection of S-AMPA", "assay": "S-AMPA induced seizure model", "settings": "mouse; intravenously 15 minutes prior to S-AMPA (1.25 nmol intracerebral)"}}, "data": [{"molecule": "CCN(CC)CCOC(=O)C1(c2ccccc2)CCCC1", "values": [{"measurement": "lowest effective dose (LED)", "setting": "[1]", "result": 100, "unit": "mg/kg"}, {"measurement": "median toxic dose (TD50)", "setting": "Median toxic dose", "result": 162, "unit": "mg/kg"}]}, {"molecule": "(3S,4aR,6R,8aR)-6-[2-(1(2)H-tetrazole-5-yl) ethyl]decahydroisoquinoline-3-carboxylic acid", "values": [{"measurement": "patients pain free at 2 hours", "setting": "[2]", "result": 54, "unit": "%"}, {"measurement": "recipients experiencing an adverse event (dizziness and sedation)", "setting": "[2]; two patients", "result": 15, "unit": "%"}, {"measurement": "volunteers with mild visual symptoms", "setting": "[3]; 19 of 20 volunteers", "result": 95, "unit": "%"}, {"measurement": "side effect: headache", "setting": "[3]; volunteers", "result": 10, "unit": "%"}, {"measurement": "side effect: sedation", "setting": "[3]; volunteers", "result": 40, "unit": "%"}, {"measurement": "spontaneous pain and allodynia", "setting": "[3]; volunteers, s.c. capsaicin, 33% and 100% of MTD vs. placebo", "result": "significantly reduced"}, {"measurement": "pinprick hyperalgesia", "setting": "[3]; volunteers, s.c. capsaicin, both doses", "result": "nominally reduced"}, {"measurement": "lowest effective dose (LED)", "setting": "[1]", "result": 15, "unit": "mg/kg"}, {"measurement": "median toxic dose (TD50)", "setting": "Median toxic dose", "result": 20, "unit": "mg/kg"}, {"measurement": "ED50, protection from tonic extensor seizures", "setting": "[4]", "result": 1.9, "unit": "mg/kg"}, {"measurement": "incidence of headache", "setting": "[5]; mild to moderate side effects", "result": 40, "unit": "%"}, {"measurement": "incidence of nausea", "setting": "[5]; mild to moderate side effects", "result": 5, "unit": "%"}, {"measurement": "incidence of sedation", "setting": "[5]; mild to moderate side effects", "result": 15, "unit": "%"}, {"measurement": "incidence of visual disturbance", "setting": "[5]; mild to moderate side effects", "result": 20, "unit": "%"}, {"measurement": "pain intensity (visual analog scale, 240 minute period)", "setting": "[5]", "result": "significantly reduced"}, {"measurement": "plasma and brain levels", "setting": "[6]", "result": "remain measurable to the final time point at 8 hours"}, {"measurement": "ED50, corneal electrical stimulation seizures", "setting": "[7]", "result": 9, "unit": "mg/kg"}, {"measurement": "ptosis, chewing, diarrhea, stereotyped head movements and writhing", "setting": "morphine dependent rats; 10 mg/kg s.c.", "result": "statistically significantly reduced"}, {"measurement": "wet dog shakes, lacrimation and salivation", "setting": "morphine dependent rats; 30 mg/kg s.c.", "result": "significantly reduced"}, {"measurement": "composite withdrawal score", "setting": "morphine dependent rats; 1, 10 or 30 mg/kg s.c., 15 minutes prior to naloxone, 1 hour observation", "result": "dose dependent improvement"}, {"measurement": "irritability, digging, jumping, chatter and erection", "setting": "morphine dependent rats; rat, in vivo", "result": "nominally lower, but did not reach statistical significance"}, {"measurement": "ED50, proportion of mice completely protected from seizure", "setting": "[8]", "result": 10.3, "unit": "mg/kg"}, {"measurement": "reduction of PCP-induced ambulations", "setting": "[9]", "result": 52, "unit": "%"}, {"measurement": "dose at which headache was noted (two individuals)", "setting": "[10]", "result": 1.8, "unit": "mg/kg"}, {"measurement": "dose at which vision changes and sedation were noted beginning", "setting": "[10]", "result": 0.9, "unit": "mg/kg"}, {"measurement": "median MTD", "setting": "[10]", "result": 1.3, "unit": "mg/kg"}, {"measurement": "rating of adverse events", "setting": "[10]; escalation to 2.0 mg/kg", "result": "mild in all instances"}, {"measurement": "threshold stimulus for evoking seizures", "setting": "[11]", "result": "ineffective"}, {"measurement": "LC neuronal cell firing during morphine withdrawal", "setting": "[12]", "result": 1, "unit": "Hz"}, {"measurement": "ED50, proportion of animals experiencing seizures", "setting": "[13]", "result": 2.95, "unit": "mg/kg"}]}, {"molecule": "sumatriptin", "values": [{"measurement": "patients pain free at 2 hours", "setting": "[2]", "result": 60, "unit": "%"}]}, {"molecule": "O=C(c1ccccc1)c1ccc2n1CCC2C(=O)O", "note": "(stereo not shown)", "values": [{"measurement": "pain intensity (visual analog scale, 240 minute period)", "setting": "[5]", "result": "significantly reduced"}]}]}
